Laboratory results reported in PubChem BioAssay (NCATS).
Only a part is listed here, and it is no random draw. Records with an inconclusive call do not appear. Calls of active or inactive are those of the source. Unless noted, calls come from the whole dose curve; as a rule, active = well fitted curve in the direction sought with a large enough effect; inconclusive = small, poorly fitted or top-dose-only effect, or another doubt; inactive = no such curve, though single readings can be large; an effect the other way counts as inactive or inconclusive.

Amino acid sequences for entries named in this document (tags omitted). A change or cut given only in a name is not applied to a line headed by its entry.
UniProt P15289: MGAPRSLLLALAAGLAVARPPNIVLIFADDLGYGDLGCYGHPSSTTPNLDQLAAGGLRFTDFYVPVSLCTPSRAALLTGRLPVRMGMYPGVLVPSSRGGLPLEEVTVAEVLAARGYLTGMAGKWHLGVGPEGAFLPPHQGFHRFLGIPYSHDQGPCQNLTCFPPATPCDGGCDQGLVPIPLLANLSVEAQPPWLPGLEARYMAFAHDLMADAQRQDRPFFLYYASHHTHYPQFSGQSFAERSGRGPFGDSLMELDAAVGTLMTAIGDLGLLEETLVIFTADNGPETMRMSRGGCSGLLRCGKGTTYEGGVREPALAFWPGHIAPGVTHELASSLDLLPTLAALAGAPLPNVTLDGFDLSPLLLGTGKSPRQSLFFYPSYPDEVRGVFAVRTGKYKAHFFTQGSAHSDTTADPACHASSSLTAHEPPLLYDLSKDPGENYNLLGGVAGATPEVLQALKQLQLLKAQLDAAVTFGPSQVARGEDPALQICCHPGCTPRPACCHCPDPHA
UniProt P35557, whole entry, looked up: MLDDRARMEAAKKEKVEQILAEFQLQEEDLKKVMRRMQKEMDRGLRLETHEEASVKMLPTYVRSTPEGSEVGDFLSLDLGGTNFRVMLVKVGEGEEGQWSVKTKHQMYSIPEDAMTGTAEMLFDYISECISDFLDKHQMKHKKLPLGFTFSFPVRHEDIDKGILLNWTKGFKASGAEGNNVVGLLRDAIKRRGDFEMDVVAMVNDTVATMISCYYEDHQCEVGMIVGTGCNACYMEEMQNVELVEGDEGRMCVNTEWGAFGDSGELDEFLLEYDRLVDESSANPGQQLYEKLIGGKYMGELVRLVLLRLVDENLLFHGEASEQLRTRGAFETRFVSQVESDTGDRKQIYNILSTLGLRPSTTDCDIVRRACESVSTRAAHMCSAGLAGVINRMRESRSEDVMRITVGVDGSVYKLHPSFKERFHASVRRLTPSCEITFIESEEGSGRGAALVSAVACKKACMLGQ
UniProt Q14397: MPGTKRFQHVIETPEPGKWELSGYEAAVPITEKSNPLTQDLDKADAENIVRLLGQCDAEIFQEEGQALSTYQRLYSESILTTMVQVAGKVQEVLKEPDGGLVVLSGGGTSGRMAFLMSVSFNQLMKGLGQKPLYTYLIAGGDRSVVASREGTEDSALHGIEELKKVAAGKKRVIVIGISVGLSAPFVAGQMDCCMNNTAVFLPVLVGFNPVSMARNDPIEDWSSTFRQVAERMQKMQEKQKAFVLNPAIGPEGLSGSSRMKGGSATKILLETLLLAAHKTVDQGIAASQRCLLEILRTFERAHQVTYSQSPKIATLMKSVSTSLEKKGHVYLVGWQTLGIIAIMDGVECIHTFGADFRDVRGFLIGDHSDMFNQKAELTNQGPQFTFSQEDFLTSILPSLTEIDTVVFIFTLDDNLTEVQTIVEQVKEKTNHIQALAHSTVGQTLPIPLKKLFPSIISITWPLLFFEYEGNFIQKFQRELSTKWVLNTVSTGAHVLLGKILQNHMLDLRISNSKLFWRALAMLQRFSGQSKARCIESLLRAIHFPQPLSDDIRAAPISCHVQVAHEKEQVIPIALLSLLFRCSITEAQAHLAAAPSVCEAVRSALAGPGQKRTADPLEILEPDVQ
UniProt P16066: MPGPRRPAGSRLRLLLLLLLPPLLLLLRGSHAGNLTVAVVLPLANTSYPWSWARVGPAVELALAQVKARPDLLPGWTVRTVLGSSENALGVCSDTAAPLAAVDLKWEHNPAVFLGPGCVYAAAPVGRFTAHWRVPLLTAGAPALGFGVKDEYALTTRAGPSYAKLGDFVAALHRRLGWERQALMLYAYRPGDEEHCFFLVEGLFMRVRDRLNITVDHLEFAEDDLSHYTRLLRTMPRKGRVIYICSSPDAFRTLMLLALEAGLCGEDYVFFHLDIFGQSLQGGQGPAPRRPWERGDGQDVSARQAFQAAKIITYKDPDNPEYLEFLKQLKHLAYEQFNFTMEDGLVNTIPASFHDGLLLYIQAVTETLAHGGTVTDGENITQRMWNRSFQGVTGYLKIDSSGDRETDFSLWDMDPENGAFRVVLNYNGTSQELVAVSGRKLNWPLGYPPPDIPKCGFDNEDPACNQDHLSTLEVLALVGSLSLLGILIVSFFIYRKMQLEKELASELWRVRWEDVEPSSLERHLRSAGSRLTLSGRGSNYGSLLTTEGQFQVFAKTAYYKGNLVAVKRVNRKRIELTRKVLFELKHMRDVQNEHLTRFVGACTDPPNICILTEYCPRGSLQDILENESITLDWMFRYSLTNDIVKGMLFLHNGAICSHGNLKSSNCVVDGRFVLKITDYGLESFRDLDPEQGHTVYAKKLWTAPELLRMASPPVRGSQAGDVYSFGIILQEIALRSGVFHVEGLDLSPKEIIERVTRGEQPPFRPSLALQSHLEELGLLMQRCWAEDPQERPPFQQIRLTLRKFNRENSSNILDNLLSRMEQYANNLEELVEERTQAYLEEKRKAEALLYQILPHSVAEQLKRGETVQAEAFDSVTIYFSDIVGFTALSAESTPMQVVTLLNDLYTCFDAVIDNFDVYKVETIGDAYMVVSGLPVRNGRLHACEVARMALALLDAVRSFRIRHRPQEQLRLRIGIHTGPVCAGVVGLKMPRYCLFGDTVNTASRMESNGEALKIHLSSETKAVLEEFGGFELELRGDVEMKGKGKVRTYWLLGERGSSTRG
UniProt P20594: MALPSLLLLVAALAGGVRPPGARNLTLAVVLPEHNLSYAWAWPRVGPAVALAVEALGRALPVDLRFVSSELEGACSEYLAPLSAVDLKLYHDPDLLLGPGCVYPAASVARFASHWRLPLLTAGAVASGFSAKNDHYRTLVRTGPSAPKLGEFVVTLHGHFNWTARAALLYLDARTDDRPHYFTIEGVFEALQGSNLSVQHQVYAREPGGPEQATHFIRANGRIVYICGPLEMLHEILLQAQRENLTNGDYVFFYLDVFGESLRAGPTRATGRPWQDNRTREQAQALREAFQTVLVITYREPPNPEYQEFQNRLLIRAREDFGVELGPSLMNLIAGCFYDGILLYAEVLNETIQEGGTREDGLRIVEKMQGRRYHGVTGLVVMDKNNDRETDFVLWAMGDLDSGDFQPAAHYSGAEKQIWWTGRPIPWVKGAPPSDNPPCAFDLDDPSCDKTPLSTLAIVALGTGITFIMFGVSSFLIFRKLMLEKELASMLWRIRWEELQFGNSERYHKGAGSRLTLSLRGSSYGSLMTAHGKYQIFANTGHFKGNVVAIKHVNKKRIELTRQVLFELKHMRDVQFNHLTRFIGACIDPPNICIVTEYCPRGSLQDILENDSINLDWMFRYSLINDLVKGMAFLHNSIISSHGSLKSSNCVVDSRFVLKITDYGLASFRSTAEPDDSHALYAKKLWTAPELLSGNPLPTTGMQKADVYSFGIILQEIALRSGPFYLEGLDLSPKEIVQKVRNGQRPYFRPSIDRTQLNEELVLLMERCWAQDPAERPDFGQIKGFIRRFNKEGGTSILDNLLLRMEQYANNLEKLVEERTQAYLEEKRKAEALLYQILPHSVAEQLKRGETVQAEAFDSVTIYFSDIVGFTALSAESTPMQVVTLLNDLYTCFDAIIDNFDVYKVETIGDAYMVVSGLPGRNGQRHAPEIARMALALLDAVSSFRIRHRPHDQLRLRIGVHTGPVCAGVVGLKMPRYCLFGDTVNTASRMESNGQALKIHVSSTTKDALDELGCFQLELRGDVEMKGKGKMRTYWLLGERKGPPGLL
UniProt Q03431: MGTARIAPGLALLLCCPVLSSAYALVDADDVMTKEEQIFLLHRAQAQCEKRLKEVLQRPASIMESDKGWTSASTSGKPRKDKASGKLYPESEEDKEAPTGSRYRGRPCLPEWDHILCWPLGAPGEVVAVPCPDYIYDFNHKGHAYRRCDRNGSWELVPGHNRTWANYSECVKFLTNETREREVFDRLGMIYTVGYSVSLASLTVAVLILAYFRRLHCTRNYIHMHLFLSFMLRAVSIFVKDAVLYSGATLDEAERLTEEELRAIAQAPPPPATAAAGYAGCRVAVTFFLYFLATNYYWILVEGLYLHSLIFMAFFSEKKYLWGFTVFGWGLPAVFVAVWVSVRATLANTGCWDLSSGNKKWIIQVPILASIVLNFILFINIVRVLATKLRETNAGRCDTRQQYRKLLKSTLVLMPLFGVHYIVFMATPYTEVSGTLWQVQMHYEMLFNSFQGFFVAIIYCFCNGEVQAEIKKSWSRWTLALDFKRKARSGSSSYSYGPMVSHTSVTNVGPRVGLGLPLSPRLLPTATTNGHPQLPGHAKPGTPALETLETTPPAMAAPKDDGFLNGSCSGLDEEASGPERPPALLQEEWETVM
UniProt Q9UGL1: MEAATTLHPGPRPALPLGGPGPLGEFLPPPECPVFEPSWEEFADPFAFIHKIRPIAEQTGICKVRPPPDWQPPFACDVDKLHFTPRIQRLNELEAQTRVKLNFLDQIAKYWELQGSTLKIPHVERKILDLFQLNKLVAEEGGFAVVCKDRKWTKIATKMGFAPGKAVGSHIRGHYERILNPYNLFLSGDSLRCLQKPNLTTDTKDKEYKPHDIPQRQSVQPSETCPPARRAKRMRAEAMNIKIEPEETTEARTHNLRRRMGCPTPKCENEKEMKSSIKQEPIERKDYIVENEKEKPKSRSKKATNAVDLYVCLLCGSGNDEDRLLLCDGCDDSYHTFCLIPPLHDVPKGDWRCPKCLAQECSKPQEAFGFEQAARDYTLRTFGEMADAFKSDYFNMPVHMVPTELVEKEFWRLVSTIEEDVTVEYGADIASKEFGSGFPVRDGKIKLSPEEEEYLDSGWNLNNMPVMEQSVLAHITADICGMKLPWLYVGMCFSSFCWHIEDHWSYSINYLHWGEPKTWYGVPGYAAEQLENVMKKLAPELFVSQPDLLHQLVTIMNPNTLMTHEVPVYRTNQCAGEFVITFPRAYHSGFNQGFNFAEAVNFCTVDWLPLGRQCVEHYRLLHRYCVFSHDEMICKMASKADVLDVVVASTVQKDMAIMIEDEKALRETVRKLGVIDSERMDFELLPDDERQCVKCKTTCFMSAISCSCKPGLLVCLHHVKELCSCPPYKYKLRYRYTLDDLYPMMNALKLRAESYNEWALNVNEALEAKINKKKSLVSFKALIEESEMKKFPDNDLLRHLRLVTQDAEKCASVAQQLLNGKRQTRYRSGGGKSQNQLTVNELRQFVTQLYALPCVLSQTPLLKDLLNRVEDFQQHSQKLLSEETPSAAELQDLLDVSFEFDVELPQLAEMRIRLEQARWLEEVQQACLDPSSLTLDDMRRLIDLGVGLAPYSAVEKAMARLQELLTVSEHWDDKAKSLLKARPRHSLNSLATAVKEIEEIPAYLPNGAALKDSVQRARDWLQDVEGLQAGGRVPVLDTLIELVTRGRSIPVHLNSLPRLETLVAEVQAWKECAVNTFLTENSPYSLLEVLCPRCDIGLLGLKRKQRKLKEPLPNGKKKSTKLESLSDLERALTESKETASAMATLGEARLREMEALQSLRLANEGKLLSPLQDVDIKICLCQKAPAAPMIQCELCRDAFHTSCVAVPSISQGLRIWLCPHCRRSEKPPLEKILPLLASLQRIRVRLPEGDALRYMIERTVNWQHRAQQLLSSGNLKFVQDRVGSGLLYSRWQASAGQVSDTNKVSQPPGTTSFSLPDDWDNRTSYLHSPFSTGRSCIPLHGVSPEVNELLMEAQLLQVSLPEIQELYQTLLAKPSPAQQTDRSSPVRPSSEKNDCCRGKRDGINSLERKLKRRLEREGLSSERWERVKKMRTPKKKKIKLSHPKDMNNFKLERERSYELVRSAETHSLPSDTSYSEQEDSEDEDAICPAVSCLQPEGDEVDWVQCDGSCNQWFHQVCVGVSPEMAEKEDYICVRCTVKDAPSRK
UniProt Q9GZX7: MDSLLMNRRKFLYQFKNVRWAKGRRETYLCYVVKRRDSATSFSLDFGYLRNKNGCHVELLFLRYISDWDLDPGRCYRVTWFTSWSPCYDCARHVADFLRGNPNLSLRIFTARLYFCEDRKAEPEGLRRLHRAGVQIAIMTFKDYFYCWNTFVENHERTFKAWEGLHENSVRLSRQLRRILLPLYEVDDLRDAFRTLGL

Key:
[1] = biological target: Arylsulfatase A (Homo sapiens) (UniProt P15289); assay: qHTS screen for enhancers of Arylsulfatase A (ASA1): LOPAC Validation Assay (AID 720538); conditions: ASA enzyme activity, LOPAC qHTS enhancer assay; activity change, positive = activation: at 57.5 µM (top of the series)
In short: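 Enhancer assay in patient-derived MLD fibroblasts carrying ASA-I179S: 48 h compound exposure at 37 C, then 14 h room-temperature pNCS turnover (0.5 mM final) in lysis buffer. Read by fluorescence at 525/598 nm after NaOH stop.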

[2] = qHTS for compounds that reverse cellular toxicity of Amyloid beta (A-beta) peptide in yeast: LOPAC Validation Assay (AID 720559); conditions: yeast expressing A-beta; at 46.1 µM (top of the series);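 note: plate controls were DMSO for no effect and equimolar ferric chloride plus clioquinol rescue for full effect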
In short: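 Rescue of A-beta toxicity was scored as yeast growth by 600 nm absorbance after 48 hr at 30 C with compound. Normalization used DMSO (negative) and equimolar ferric chloride plus clioquinol (positive).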

[3] = qHTS for Activators of Parkin Expression: LOPAC Validation Assay (NLuc Reporter) (AID 720572); conditions: Parkin promoter NanoLuc reporter cells, luminescence, percent of positive control, DMSO as zero; at 46.1 µM (top of the series)
In short: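 Compound effects on Parkin promoter activity were measured as NanoLuc luminescence after 24 h at 37 C. The neuronal reporter line also carried FLuc, which was read first. LOPAC compounds were tested at 7 concentrations, with normalization to DMSO (0%) and positive control (100%).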

[4] = qHTS for Activators of Parkin Expression: LOPAC Validation Assay (FLuc Reporter) (AID 720573); conditions: Cell line, PRKN promoter firefly luciferase reporter, vehicle wells = 0, positive control = 100%; at 46.1 µM (top of the series)
In short: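 FLuc signal from Parkin-promoter coincidence reporter neuronal cells, normalized to DMSO and positive control (100%). Cells (1,500/well) pre-incubated 24 h, then exposed to LOPAC compounds in 7-point dose response for 24 h at 37 C, 5% CO2.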

[5] = biological target: T1, Hexokinase-4 (Homo sapiens) + Glucokinase regulatory protein (Homo sapiens) (UniProt P35557+Q14397); assay: qHTS assay for inhibitors of recombinant human GCK-GKRP interaction: Diaphorase-coupled assay (AID 743205); conditions: G6PDH/diaphorase resorufin fluorescence; at 57.5 µM (top of the series)
In short: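 A kinetic fluorescence read (Ex 525/Em 590 nm, every minute for 30 minutes) tracked resorufin from a G6PDH-diaphorase coupled GCK reaction. It contained 10 nM GST-GCK, 10 nM FLAG-GKRP, 5 mM glucose, 0.4 mM ATP in Hepes pH 7.6. Normalized to with/without-enzyme DMSO controls.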

[6] = biological target: T1, Hexokinase-4 (Homo sapiens) + Glucokinase regulatory protein (Homo sapiens); assay: qHTS assay for inhibitors of recombinant human GCK-GKRP interaction: ADP-Glo assay (AID 743206); conditions: ADP-Glo luminescence, 60 min, 0% = vehicle-only wells with enzyme present; at 76.9 µM (top of the series);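 note: plate controls were DMSO plus enzyme for no effect and no enzyme for full effect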
In short: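 Pin-transferred compounds meet a 15 nM GST-GCK/15 nM FLAG-GKRP/2 uM S6P mix (dispense concentrations). ATP is then added to 0.4 mM final with 5 mM glucose, and the reaction runs 60 min at room temperature. ADP is quantified luminescently.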

[7] = biological target: T1, Hexokinase-4 (Homo sapiens) + Glucokinase regulatory protein (Homo sapiens); assay: qHTS assay for inhibitors of recombinant human GCK-GKRP interaction: HTRF assay (AID 743207); conditions: recombinant GCK-GKRP HTRF binding, 60 min, with sorbitol-6-phosphate; at 57.5 µM (top of the series);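 note: 0% = DMSO with GCK present and -100% = DMSO wells lacking GCK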
In short: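 After 60 min equilibration at room temperature with anti-FLAG XL665 and anti-GST antibodies, FRET ratio (665/615 nm, excitation 320 nm) was read. Proteins: GST-GCK and FLAG-GKRP, each 5 nM, plus 2 uM S6P, pH 7.1 buffer; GCK-free wells define minimum signal.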

[8] = qHTS Assay for Identifying Gametocytocidal Compounds (AID 743244);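 note: % is set by controls: 0 for no effect and ±100 for the full control effect; actives lower the fluorescent signal which means gametocytes are killed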; conditions: P. falciparum 3D7 stage III-V gametocytes, alamarBlue, 72 h; max response: hits give low values
[9] = Natriuretic polypeptide receptor (hNpr1) antagonism - Pilot counterscreen GloSensor control cell line (AID 1347045; calls by dose curve; note: % is set by controls: 0 for no effect and ±100 for the full control effect); conditions: GloSensor cAMP control cell line, luminescence counterscreen; at 38.3 µM (top of the series)
In short: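 The SNP-driven cGMP luminescence signal (50 uM, 20 min, room temperature) was measured in GloSensor HEK293 control cells. Compounds were tested as a LOPAC titration series and preincubated for 30-50 min.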

[10] = biological target: Atrial natriuretic peptide receptor 1 (Homo sapiens) (UniProt P16066); assay: Natriuretic polypeptide receptor (hNpr1) antagonism - Pilot screen (AID 1347049; calls by dose curve;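 note: HEK293 cells with hNpr1 and GloSensor cGMP luciferase stimulated by 0.1 nM hNppA; agonist-evoked cGMP luminescence read 20 min after hNppA addition; % is set by controls: 0 for no effect and ±100 for the full control effect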); conditions: hNpr1 cells, antagonist mode cGMP read-out; at 57.5 µM (top of the series)
In short: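 Receptor antagonism read as cGMP-dependent luminescence in hNpr1/pGS-40F HEK293 cells: pre-read after 30 min compound exposure, post-read 20 min after hNppA agonist at 0.1 nM final, all at room temperature, protected from light; A-71915 titration as control.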

[11] = biological target: Atrial natriuretic peptide receptor 2 (Homo sapiens) (UniProt P20594); assay: Natriuretic polypeptide receptor (hNpr2) antagonism - Pilot subtype selectivity assay (AID 1347050; calls by dose curve; note: % is set by controls: 0 for no effect and ±100 for the full control effect); conditions: NPR2-expressing cells, cGMP antagonist-mode read-out; at 38.3 µM (top of the series)
In short: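 Antagonist mode: compounds (LOPAC1280, seven 1:5 dilutions) added 30 min before 1 nM hNppC stimulation of hNpr2-HEK293 cGMP-sensor cells; luminescence read before and 20 min after agonist at ambient temperature.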

[12] = biological target: Parathyroid hormone/parathyroid hormone-related peptide receptor (Homo sapiens) (UniProt Q03431); assay: qHTS for PTHR1 Agonists: Optimization Screen against the NCGC LOPAC library (AID 1347079); conditions: HEK293 GP2 PTHR1 GloSensor cAMP luminescence, 1 h; at 57.1 µM (top of the series);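 note: GloSensor cAMP luminescence in HEK-293 GP2 cells expressing human PTHR1 with IBMX; 0% is about no effect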
In short: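 Signal increase flags agonism. GP2 cells, derived from HEK-293, express human PTHR1 and a GloSensor cAMP construct.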

[13] = biological target: Lysine-specific demethylase 5B (Homo sapiens) (UniProt Q9UGL1); assay: Optimization screen for KDM5B Histone Demethylases FDH coupled qHTS against the LOPAC library (AID 1347166); conditions: KDM5B demethylation, FDH-coupled NADH fluorescence; at 57.5 µM (top of the series); note: 0% is about no effect
In short: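 KDM5BDeltaAP (200nM final) in 50mM HEPES pH 7.5, 0.01% Tween-20 was preincubated with compound for 10 min at room temperature. A substrate mix of 12.5uM H3K4Me3, 25uM a-ketoglutarate, ascorbate, Fe2+, NAD+ and formaldehyde dehydrogenase was then added. NADH fluorescence (340/450 nm) was read initially and after 30 min.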

[14] = Validation qHTS assay for inhibitors of Activation Induced Cytidine Deaminase (AID): UDG Counterscreen signal (AID 1347427); conditions: biochemical UDG counterscreen, fluorescence signal; at 115 µM (top of the series); note: 0% is about no effect
In short: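 Fluorescence at 560 nm excitation, 665 nm emission reports UDG signal after 250 mM NaOH (2x) addition and 30 min. Enzymes (AID 1 uM, UDG 2 U/mL, at 4/3x) preincubated 10 min with compound, then 4 h with 4x 250 nM DJC20/DJC23 substrate at room temperature.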

[15] = biological target: Single-stranded DNA cytosine deaminase (Homo sapiens) (UniProt Q9GZX7); assay: Validation qHTS assay for inhibitors of Activation Induced Cytidine Deaminase (AID): AID signal (AID 1347429); conditions: Recombinant AID, FRET ssDNA deamination with UDG, fluorescence; at 115 µM (top of the series); note: % is set by controls: 0 for no effect and ±100 for the full control effect
In short: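 Compounds (up to 114 uM final) are tested against AID plus UDG using DJC20/DJC23 FRET substrate. Reactions incubate 4 hr at room temperature, receive NaOH for 30 min, and are read at Ex 540/Em 590 nm.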

[16] = Cell Viability qHTS for small molecule stabilizers of the endoplasmic reticulum resident proteome (AID 1508629); conditions: cell viability counter-screen, 100 nM thapsigargin for final 4 h
[17] = Primary qHTS for small molecule stabilizers of the endoplasmic reticulum resident proteome: Secreted ER Calcium Modulated Protein (SERCaMP) assay (AID 1508630); conditions: SH-SY5Y GLuc-SERCaMP (Gaussia luciferase released on ER calcium loss) secretion, thapsigargin, luminescence; at 38.4 µM (top of the series); note: % is set by controls: 0 for no effect and ±100 for the full control effect
In short: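 The SH-SY5Y reporter protocol was run at 3 concentrations up to 38.3 uM (primary) or 11 concentrations (follow-up): 16 h compound, 100 nM thapsigargin for 4 h, then extracellular luciferase luminescence.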

CN(CCCl)Cc1cc(Cl)c(NC2=NCCN2)c(Cl)c1
inactive: outcome [1] | growth rescue, positive = activation [2] 3.29% | activation [3] -6.14% | activation [4] -16.9% | activity change, positive = activation [5] -5.79% | activity, positive = activation [6] 1.96% | activity change, negative = inhibition [7] -9.09% | max response [8] 32.8% | activity change, negative = inhibition [9] 1.43% | activity change, negative = inhibition [10] 14.2% | activity change, negative = inhibition [11] -19.8% | activation [12] -12.6% | activity, negative = inhibition [13] -23.3% | activity, negative = inhibition [14] 16.2% | activity change, negative = inhibition [15] 24.6% | max response [16] 2.63% | activity change, negative = inhibition [17] 246%
